Tests used:
[1] = molecular target: human Rse receptor on human Schwann cells (human) (UniProt Q06418)
[2] = molecular target: human Axl receptor on human Schwann cells (human) (UniProt P30530)

- gas6 concentration at which activation of Rse could be detected [1]: 1.4 to 14 µM
- gas6 concentration at which activation of Axl could be detected [2]: 1.4 to 14 µM
Substance: recombinant human gas6 (ligand)
